Values of other authors, collected in PMC9132125 (Journal of natural products, 2016).

Tested on: GSK-3β
Settings: read-out: GSK-3β IC50; previously published; cited from earlier work

In the case of `Cl.Cl.O=C1Nc2cc(Br)ccc2/C1=C1/Nc2ccccc2/C1=N\OCCN1CCNCC1` [compound 22], the IC50 is listed as 3.3 nM.
